Literature values as cited in patent publication US7455840B2, “Compositions and methods to reduce mutagenesis” (priority 2003, dated 2008).
This is a selection: effects in other tests are not listed, and their absence says nothing.

Chains of the proteins cited; added tags and fusions are not shown.
UniProt P0A7C2, whole entry: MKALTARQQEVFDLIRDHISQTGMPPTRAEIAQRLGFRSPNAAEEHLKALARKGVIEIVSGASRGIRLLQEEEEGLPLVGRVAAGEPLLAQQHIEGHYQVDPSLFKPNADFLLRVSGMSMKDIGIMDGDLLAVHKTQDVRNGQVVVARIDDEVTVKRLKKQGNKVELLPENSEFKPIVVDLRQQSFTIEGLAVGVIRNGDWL

Target: LexA (Escherichia coli, UniProt P0A7C2)
Settings: Roland, J. Biol. Chem. (1990); cited from earlier work

CC(C)OP(=O)(F)OC(C)C
auto-cleavage of LexA: inhibits
